For this test, the target named is Serotransferrin (Homo sapiens) (UniProt P02787). Kind of test: Binding affinity to human holo-transferrin assessed as pseudo-first-order rate constant measured as removal of ferric ion at 1 mM measured for 1 hr by UV-vis spectrophotometric analysis. In kind it is single protein.

Amino acid sequences for entries named in this document (tags omitted).
UniProt P02787, whole entry, looked up: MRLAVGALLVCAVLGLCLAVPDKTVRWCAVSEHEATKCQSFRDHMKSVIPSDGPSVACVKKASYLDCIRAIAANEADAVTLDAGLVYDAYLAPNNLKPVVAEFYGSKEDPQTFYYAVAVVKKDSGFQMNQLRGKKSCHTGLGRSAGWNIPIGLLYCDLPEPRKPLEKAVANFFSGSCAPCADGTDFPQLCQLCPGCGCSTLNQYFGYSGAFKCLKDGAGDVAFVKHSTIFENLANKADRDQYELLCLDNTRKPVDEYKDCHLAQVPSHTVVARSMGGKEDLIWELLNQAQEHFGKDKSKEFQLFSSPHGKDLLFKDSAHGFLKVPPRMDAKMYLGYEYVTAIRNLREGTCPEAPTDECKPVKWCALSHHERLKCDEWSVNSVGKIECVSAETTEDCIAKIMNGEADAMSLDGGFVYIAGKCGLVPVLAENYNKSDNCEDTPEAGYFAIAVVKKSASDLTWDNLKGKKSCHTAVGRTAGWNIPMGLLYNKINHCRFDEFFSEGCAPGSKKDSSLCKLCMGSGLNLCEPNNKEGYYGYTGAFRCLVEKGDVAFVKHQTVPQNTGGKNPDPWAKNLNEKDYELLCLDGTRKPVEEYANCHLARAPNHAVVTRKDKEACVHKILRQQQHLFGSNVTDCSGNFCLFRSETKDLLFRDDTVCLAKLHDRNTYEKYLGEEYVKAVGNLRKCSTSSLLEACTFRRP

`O=C(/C=C/c1ccc(Cl)cc1Cl)NO`: the K was found to be 0 ×10² /min.

The values above are taken from ChEMBL document CHEMBL2434956, “Investigating the selectivity of metalloenzyme inhibitors” (J Med Chem, 2013).
